Data published in patent US6570013B2, “Salts of zopolrestat” (dated 2003).

Test: Measurement of water solubility (distilled water added until clear solution)
Conditions: weight of salt divided by volume of clear solution

## [4-oxo-(5-trifluoromethyl-benzothiazol-2-ylmethyl)-3,4-dihydro-phthalazin-1-yl]-acetic acid triethanolamine salt
  water solubility: 6600 µg/mL
